From patent publication US20230365620A1, “CYCLIN-DEPENDENT KINASE INHIBITORS AND METHODS OF USE” (DANA-FARBER CANCER INSTITUTE, INC., priority 2018, published 2023)
pIC50: −log10 of the molar value.

By UniProt entry, the sequences of proteins in these tests, tags left out.
UniProt P49336, whole entry: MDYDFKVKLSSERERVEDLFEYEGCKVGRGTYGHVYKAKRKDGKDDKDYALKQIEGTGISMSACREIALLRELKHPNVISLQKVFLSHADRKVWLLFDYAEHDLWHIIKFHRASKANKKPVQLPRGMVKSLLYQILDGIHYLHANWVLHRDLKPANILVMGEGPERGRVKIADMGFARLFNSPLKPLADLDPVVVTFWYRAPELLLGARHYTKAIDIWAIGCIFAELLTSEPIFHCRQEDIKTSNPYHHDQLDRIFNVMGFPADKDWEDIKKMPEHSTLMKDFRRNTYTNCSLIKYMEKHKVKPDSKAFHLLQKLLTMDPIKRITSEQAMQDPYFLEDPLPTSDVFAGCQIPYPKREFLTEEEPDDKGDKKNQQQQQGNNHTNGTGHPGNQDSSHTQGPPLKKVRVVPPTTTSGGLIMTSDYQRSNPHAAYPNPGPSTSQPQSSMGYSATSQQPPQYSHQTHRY
UniProt P24863, whole entry partner: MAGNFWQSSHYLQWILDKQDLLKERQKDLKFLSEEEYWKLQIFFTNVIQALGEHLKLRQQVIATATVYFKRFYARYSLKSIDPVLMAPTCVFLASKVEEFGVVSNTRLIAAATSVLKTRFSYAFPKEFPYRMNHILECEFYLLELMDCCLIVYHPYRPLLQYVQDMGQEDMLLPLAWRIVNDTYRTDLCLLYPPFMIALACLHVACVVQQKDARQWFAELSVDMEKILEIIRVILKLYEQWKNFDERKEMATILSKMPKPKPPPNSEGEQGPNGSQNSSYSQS

Target: CDK8 (Homo sapiens, UniProt P49336)
Test: LANTHASCREEN Eu Kinase Binding Assay (competitive kinase binding, Tracer displacement)
Settings: read-out: Enzyme IC50; displacing the Tracer from binding to the target kinase

How did the pIC50 turn out when `CC(=O)N(C)[C@H]1CC[C@@]2(C)C(CC[C@@H]3C2CC[C@]2(C)[C@@H](c4ccc5ccncc5c4)CC[C@@H]32)C1` (stereo partly shown) was run?
Its pIC50 is > 7.00.
